According to patent publication US11220482B2, “Aminopyridinemethanol compounds and their use” (UNIVERSITE AMIENS PICARDIE JULES VERNE, priority 2017, dated 2022):

Experiments:
[1] = test system: CHO-K1 cells
[2] = test system: CHO-K1 cells; remark: listed apart in the source
[3] = test system: CHO-K1 cells; test: In vitro micronucleus assay, long-term exposure; conditions: long-term (24 h), without S9 mix, positive control 0.6 μg/mL
[4] = test system: CHO-K1 cells; test: In vitro micronucleus assay, short-term exposure; conditions: without S9 mix, positive control 0.6 μg/mL

## CO[C@@]12[C@H](COC(N)=O)C3=C(C(=O)C(C)=C(N)C3=O)N1C[C@@H]1N[C@@H]12 [Mitomycin C, mitomycin C]
[1]
  MNC1 (micronucleated cell rate): 28 ‰
  MNC2 (micronucleated cell rate): 32 ‰
  MNC-M (mean of micronucleated cell rates): 30 ± 2.8 ‰
[2]
  MNC1 (micronucleated cell rate): 28 ‰
  MNC2 (micronucleated cell rate): 32 ‰
[3]
  BI (binucleated cells): 448
  MNC1 (micronucleated cell rate): 28 ‰
  MNC-M (mean of micronucleated cell rates): 30 ± 2.8 ‰
  MONO (mononucleated cells): 52
[4]
  BI (binucleated cells): 452
  MNC2 (micronucleated cell rate): 32 ‰
  MNC-M (mean of micronucleated cell rates): 30 ± 2.8 ‰
  MONO (mononucleated cells): 48

Like-named read-outs stand apart in the source and are kept apart here.
